The subject of experiment [1] is Pseudomonas aeruginosa. Kind of experiment: Ratio of Kcat to Km for Pseudomonas aeruginosa strain PS 297 metallo-beta-lactamase IMP-1 expressed in Escherichia coli BL21(DE3) assessed as substrate hydrolysis using 100 uM nitrocefin.
Experiment [2] concerns Pseudomonas aeruginosa. The experiment can be described thus: Activity of Pseudomonas aeruginosa strain PS 297 metallo-beta-lactamase IMP-18 expressed in Escherichia coli BL21(DE3) assessed as substrate hydrolysis using 100 uM nitrocefin.
The subject of experiment [3] is Pseudomonas aeruginosa. Kind of experiment: Ratio of Kcat to Km for Pseudomonas aeruginosa strain PS 297 metallo-beta-lactamase IMP18 expressed in Escherichia coli BL21(DE3) assessed as substrate hydrolysis using 100 uM nitrocefin.

Turning to `CO[C@@]1(NC(=O)Cc2cccs2)C(=O)N2C(C(=O)O)=C(COC(N)=O)CS[C@@H]21` [CEFOXITIN], the kcat/Km in the experiment on Pseudomonas aeruginosa [1] came to 2 ×10⁶ /M/s; in the experiment with Pseudomonas aeruginosa [3] it was 1.8 ×10⁵ /M/s. The Km in the experiment on Pseudomonas aeruginosa [2] is 11 µM. Further, in the experiment with Pseudomonas aeruginosa [2], the kcat came to 2 s⁻¹.

These data come from ChEMBL document CHEMBL1687833, “Genetic context and biochemical characterization of the IMP-18 metallo-beta-lactamase identified in a Pseudomonas aeruginosa isolate from the United States” (2011).
